Consider 11 compounds from patent US4514403A, “Hydrouracil compounds” (Yoshitomi Pharmaceutical Industries Ltd., priority 1980, dated 1985).

Counter-ions that a name gives are not always drawn.

The nature of series [1]: Bradykinin nociception test. As to conditions: for ED50: Rattus norvegicus, read-out: Bradykinin Nociception Test ED50; for Inhibition (%) of Occurrence of Pain / Bradykinin Nociception Test ED50: rats; for Inhibition (%) of Occurrence of Pain: 2.5 mg/kg s.c.
A short description of a further series: Electric stimuli test. As to conditions: for ED50: Mus musculus, read-out: Electric Stimuli Test ED50; for Electric Stimuli Test ED50: mice.
A short description of a further series: AgNO3 arthritis test. The settings on record: for ED50: Rattus norvegicus, sc, read-out: AgNO3 Arthritis Test ED50; for Inhibition (%) of Occurrence of Pain: 5 mg/kg s.c.
Series [2] in a line: Phenylquinone writhing test. As to conditions: for ED50: Mus musculus, read-out: Phenylquinone Writhing Test ED50; for Inhibition (%) of Occurrence of Pain / Phenylquinone Writhing Test ED50: mice; for Inhibition (%) of Occurrence of Pain: 0.5 mg/kg s.c.
The nature of another series: Hot plate test. As to conditions: for ED50: Rattus norvegicus, sc, read-out: Hot Plate Test ED50.
Another series can be described thus: in vivo. As to conditions: rat.
Another series is described as follows: Mouse jumping test. The settings on record: administration at a lethal dose.
The subject of series [3] is ventro-medial hypothalamus. Description: Effect on the aggressive-defense reaction produced by electrical stimulation at the ventro-medial hypothalamus of cats. In kind it is in vivo. The settings on record: for Threshold of current, Ear-flattening / Threshold of current, Growling / Threshold of current, Retreat with provocation / Threshold of current, Pupil dilatation: standard current = 100. The protocol:
The latter used the double-walled cannula method which permitted electrical and chemical stimulation at the same locus in brain. H. Nakao et al. in "Integrative Control Functions of the Brain", vol. […] Similar studies have been done using serotonin by L. H. Allikmets in "Pavlov Journal of High Nervous Activity", 22, 597-602 (1972) and using chlorpromazine, haloperidol, pentobarbital and diazepam by H. Maeda in "Folia Psychiatrica et Neurologica Japonica", 30, 539-546 (1976).
Alternatively 30 mg/kg of Test compound B was injected subcutaneously.

In a further series the test system is central nervous system. Description: Activity on central nervous system. As to conditions: in vivo.
Series [4] deals with ventro-medial hypothalamus. As to conditions: compared with Test compound B; cited from earlier work.
The conditions of series [5]: rats; withdrawal.
A short description of another series: Tolerance test. As to conditions: continuous administration. In kind it is in vivo.
A short description of series [6]: Antagonism by levallorphan in electric stimuli test. The settings on record: electric stimuli test in mice; levallorphan (narcotic antagonist).
The nature of series [7]: Tooth pulp nociception test.
Series [8] concerns evoked potentials in central nervous system. Description: Effect on the various evoked potentials in central nervous system. In kind it is in vivo, Male Wistar rats. Also noted: key to Amplitude of Evoked Responses, VP-COR / Amplitude of Evoked Responses, HIP-AMY / Amplitude of Evoked Responses, HIP-SEP: -: No change; --: No change; (+): Levallorphan antagonism; (-): Levallorphan antagonism. The protocol:
Male Wistar rats, weighing 300-350 g, were used under ethyl ether anesthesia. The trachea and femoral vein were cannulated for artificial respiration and drug injection, respectively. Immobilization of the rat was maintained by gallamine thioethiodide (10 mg/kg) given intravenously every one hours. All wound edges were infiltration with carbocaine hydrochloride. The experiments began after at least 2 hours had elapsed from discontinuance of ether anesthesia. The COR (somatosensory cortex) evoked potentials by VP (neucleus ventralis posterior thalamus) stimulation (VP - COR evoked potential) were recorded from somatosensory cortex, through a silver electrode applied directly to the cortex. In order to record VP and MRF (midbrain reticular formation) evoked potentials by sciatic nerve stimulation or AMY (amygdala) and SEP (septum) evoked potentials by HIP (hippocampus) stimulation, bipolar stainless steel electrodes were stereotaxically placed into the VP, MRF, AMY, SEP and HIP. The stimuli were delivered to various sites every 2 seconds from a stimulation and consisted of 0.1 msec rectangular pulses (twice threshold intensity). The evoked responses were visualized on an oscilloscope. All records were made up of 20 superimposed tracings.

Setting [9] is: calculated from inhibition (%) in a low dose.

Take `CN1CC[C@]23c4c5ccc(O)c4O[C@H]2[C@@H](O)C=C[C@H]3[C@H]1C5` [Morphine]: the ED50 in series [1] (po) came to 50 mg/kg; in series [1] (sc), 6 mg/kg; in “Electric stimuli test” (sc) it was 3 mg/kg; in the series “AgNO3 arthritis test” it was 0.8 mg/kg; in series [2] (po) it was 2.1 mg/kg; in [2] (sc) it was 0.4 mg/kg. The ED50 in the series “Hot plate test” is 4 mg/kg. Moreover, the results for the “Inhibition (%) of Occurrence of Pain” value (in series [1]; in the series “AgNO3 arthritis test” (rats); in [2]) were 17%, 100% and 78%, respectively. Moreover, in “Electric stimuli test” (p.o.), the “Electric Stimuli Test ED50” value was 17 mg/kg.
With `O=C1CCN(C2CCN(CC=Cc3ccccc3)CC2)C(=O)N1` [Test compound B, 1-(1-cinnamyl-4-piperidyl)hydrouracil hydrochloride], the ED50 in series [1] (po) was 100 mg/kg; in [1] (sc) it was 10 mg/kg; in the series “Electric stimuli test” (po), 200 mg/kg; in “Electric stimuli test” (sc) it was 40 mg/kg; in the series “AgNO3 arthritis test”, 25 mg/kg; in [2] (po) it was 18 mg/kg. Besides, the figures for the ED50 (in series [2] (sc); in the series “Hot plate test”) were 7.8 mg/kg and 90 mg/kg, respectively. The LD50 is 150 mg/kg in “in vivo” (ip), 1200 mg/kg in the series “in vivo” (po) and 500 mg/kg in “in vivo” (sc). For the same compound, the jumping symptom result in “Mouse jumping test” is on record as “did not cause any jumping symptom”. Moreover, the “Threshold of current, Ear-flattening” value stood at 100 in series [3] (30 mg/kg s.c., 0 min); 120 in [3] (30 mg/kg s.c., 70 min); 105 in series [3] (30 mg/kg s.c., 110 min); 100 in series [3] (10^-6 g in brain, 0 min); 200 in series [3] (10^-6 g in brain, 5 min); 200 in series [3] (10^-6 g in brain, 20 min). For the same compound, the “Threshold of current, Growling” value in [3] (30 mg/kg s.c., 0 min) stood at 100; in series [3] (30 mg/kg s.c., 70 min) it was 177; in [3] (30 mg/kg s.c., 110 min), 184; in series [3] (10^-6 g in brain, 0 min) it was 100; in series [3] (10^-6 g in brain, 5 min), 200. Further, the “Threshold of current, Retreat with provocation” value in [3] (30 mg/kg s.c., 0 min) stood at 100; in series [3] (30 mg/kg s.c., 70 min), 142; in series [3] (30 mg/kg s.c., 110 min), 127; in series [3] (10^-6 g in brain, 0 min), 100; in series [3] (10^-6 g in brain, 5 min), 180. Moreover, the “duration for which the threshold of responses was raised” value in series [3] (30 mg/kg subcutaneously) is recorded as “over 2 hours”. Further, in series [3] (30 mg/kg subcutaneously), the “rage behaviour with provocation by the experimenter” value is listed as “did not show rage behaviour”. For the same compound, in [3] (10^-6 g in 0.5 μl through double-walled cannula), the “duration for which the threshold of current was raised” value is 60 min. For the same compound, the “Threshold of current, Pupil dilatation” value worked out at 100 in series [3] (10^-6 g in brain, 0 min) and 200 in series [3] (10^-6 g in brain, 5 min). In addition, the “breathing of the cat” value in series [3] (during this experiment) is listed as “normal”. Moreover, the “threatening, rage and retreat reactions” value in [3] (electrical stimulation of ventro-medial hypothalamus) is reported as “clearly suppressed”. For the same compound, the muscle relaxant activity result in the series on central nervous system is “did not show practically such activities”. The reserpine potentiating activity result in the series with central nervous system is “did not show practically such activities”. For the same compound, in the series on central nervous system, the “suppression of spontaneous locomotor activity” value is listed as “did not show practically such activities”.
Turning to `CN1C(=O)CN=C(c2ccccc2)c2cc(Cl)ccc21` [diazepam], the “inhibition of threatening and rage reactions” value in [4] is given as “less active”.
Regarding `COc1ccc2c3c1O[C@H]1[C@@H](O)C=C[C@H]4[C@@H](C2)N(C)CC[C@@]341` [Codeine, reference compound], the body weight reduction result in series [5] is given as “remarkably reduced”. The “tolerance (decrease of effects)” value in the series “Tolerance test” is listed as “caused a clear tolerance”.
In the case of `COc1cccc(C2(O)CCCCC2CN(C)C)c1` (stereo not drawn) [Tramadol, reference compound], the “Bradykinin Nociception Test ED50” value in series [1] (p.o.) turned out to be 50 mg/kg; in series [1] (s.c.), 70 mg/kg. The 50% lethal dose (LD50) in the series “in vivo” (ip) was 150 mg/kg; in the series “in vivo” (po), 228 mg/kg; in “in vivo” (sc), 300 mg/kg. Also, the “Influence of levallorphan on analgesic activity” value in [6] is reported as “reduced”. In addition, the “Tooth Pulp Nociception Test IT100” value in series [7] (rabbit, in vivo, iv) was 5 mg/kg. Moreover, the entries for the “Electric Stimuli Test ED50” value in the series “Electric stimuli test” (p.o.) and in “Electric stimuli test” (s.c.) were 23 mg/kg and 12 mg/kg, respectively. The “AgNO3 Arthritis Test ED50” value in “AgNO3 arthritis test” (rats, s.c.) came out at 17 mg/kg. Also, the “Phenylquinone Writhing Test ED50” value in series [2] (p.o.) is 11 mg/kg; in series [2] (s.c.) it was 1.5 mg/kg. Moreover, in “Hot plate test” (rats, s.c.), the “Hot Plate Test ED50” value was found to be 50 mg/kg.
Consider `CCCC(C)C1(CC)C(=O)NC(=O)NC1=O` (stereo not drawn) [pentobarbital], for which the “inhibition of threatening and rage reactions” value in [4] is reported as “less active”.
In the case of `O=C1CCN(C2CCN(CCc3ccccc3)CC2)C(=O)N1` [Test compound D, 1-(1-phenethyl-4-piperidyl)hydrouracil hydrochloride], the ED50 in series [1] (sc) came out at 25 mg/kg; in “Electric stimuli test” (po), 220 mg/kg; in the series “Electric stimuli test” (sc) it was 100 mg/kg; in the series “AgNO3 arthritis test”, 90 mg/kg; in series [2] (po), 4 mg/kg; in series [2] (sc), 2.5 mg/kg. The ED50 in “Hot plate test” stood at 200 mg/kg. Besides, the LD50 was 180 mg/kg in “in vivo” (ip), 500 mg/kg in “in vivo” (po) and 450 mg/kg in “in vivo” (sc).
`CC(C)=CCN1CCC2(C)c3cc(O)ccc3CC1C2C` (stereo not drawn) [Pentazocine]: the ED50 in series [1] (po) came to 100 mg/kg; in series [1] (sc), 8 mg/kg; in “Electric stimuli test” (po), 178 mg/kg; in the series “Electric stimuli test” (sc), 23 mg/kg; in “AgNO3 arthritis test”, 10 mg/kg; in series [2] (po), 18 mg/kg. Moreover, the ED50 in [2] (sc) was 1.3 mg/kg; in “Hot plate test”, 30 mg/kg. Further, the figures for the “Relative potency (Test compound A = 1), Bradykinin Nociception Test” value in [1] (calculated from ED50) and in [1] (setting [9]) were 0.5 and 0.34, respectively. Also, the “Inhibition (%) of Occurrence of Pain” value in series [1] is recorded as 13%; in “AgNO3 arthritis test” (rats), 33%; in series [2], 15%. The LD50 in the series “in vivo” (po) turned out to be 1100 mg/kg; in “in vivo” (sc) it was 270 mg/kg. Moreover, the “Relative potency (Test compound A = 1), Tooth Pulp Nociception Test” value in [7] (calculated from ED50) was 0.82; in series [7] (setting [9]), 0.59. Also, in series [7] (rabbits, 2.5 mg/kg i.v.), the “increasing rate in threshold” value was 44%. Further, the “Relative potency (Test compound A = 1), AgNO3 Arthritis Test” value in “AgNO3 arthritis test” (calculated from ED50) is listed as 0.7; in the series “AgNO3 arthritis test” (setting [9]), 0.78. The “Relative potency (Test compound A = 1), Phenylquinone Writhing Test” value was 0.77 in series [2] (calculated from ED50) and 0.31 in [2] (setting [9]).
Turning to `CN(C)CCCN1c2ccccc2Sc2ccc(Cl)cc21` [chlorpromazine], the “inhibition of threatening and rage reactions” value in [4] is “less active”.
With `CCOC(=O)C1(c2ccccc2)CCN(C)CC1` [Pethidine, reference compound], in series [8] (5 mg/kg i.v.), the “Amplitude of Evoked Responses, HIP-SEP” value is given as “--” and the “Amplitude of Evoked Responses, VP-COR” value is “--”. The “Amplitude of Evoked Responses, HIP-SEP” value in series [8] (10 mg/kg i.v.) is recorded as “--”.
Regarding `Cc1c(N(C)C)c(=O)n(-c2ccccc2)n1C` [Aminopyrine, reference compound], the ED50 worked out at 30 mg/kg in series [1] (sc); 315 mg/kg in the series “Electric stimuli test” (po); 100 mg/kg in the series “Electric stimuli test” (sc); 170 mg/kg in “AgNO3 arthritis test”; 92 mg/kg in series [2] (po); 16 mg/kg in series [2] (sc). The LD50 in the series “in vivo” (ip) was 248 mg/kg; in the series “in vivo” (po), 1050 mg/kg. Besides, the “Amplitude of Evoked Responses, HIP-AMY” value in [8] (10 mg/kg i.v.), in series [8] (25 mg/kg i.v.) and in [8] (50 mg/kg i.v.) was “--” each time. Besides, the “Amplitude of Evoked Responses, HIP-SEP” value in [8] (10 mg/kg i.v.), in series [8] (25 mg/kg i.v.) and in series [8] (50 mg/kg i.v.) was “--” each time. In series [8] (10 mg/kg i.v.), the “Amplitude of Evoked Responses, VP-COR” value is “--”.

A word on the ED50: it is the dose that gives a 50% effect, or the effect in half of the subjects. Broadly, the LD50 is the dose expected to kill half of the subjects tested.
